{"source": "patent US20260193672A1", "about": "“INDUCIBLE CELL SUICIDE SWITCHES AND THEIR USE IN CELL AND GENE THERAPIES” (The General Hospital Corporation, priority 2022, published 2026)", "key": {"[1]": {"system": "Jurkat cells expressing the switch", "experiment": "DNA damage assay (gamma-H2AX intracellular flow)", "type": "cell-based", "settings": "drug administered overnight", "source_text": "To determine whether promoter strength modifies ICADdegron-CAD suicide switch efficiency, Jurkat cells were transduced to express the ICAD-degron 2A CAD p.R11W suicide switch was expressed, driven by an EF1alpha or PGK promoter."}, "[2]": {"system": "primary human CAR T cells", "experiment": "Competitive proliferation assay of suicide switch-transduced versus untransduced cells", "type": "cell-based", "settings": "with lenalidomide", "source_text": "Cells were stimulated weekly with an equal number of irradiated K562 cells transduced to express CD3 and CD28 scFvs. Flow cytometry was used to enumerate the percentage of mTagBFP2+ cells on days 0, 7, and 14."}, "[3]": {"system": "ICAD-degron fusion protein", "settings": "4 hours of exposure to 1000 nM lenalidomide, ICAD-degron-T2A-CADp.R11W-FLAG system"}}, "data": [{"smiles": "Nc1cccc2c1CN(C1CCC(=O)NC1=O)C2=O", "note": "(stereo not shown) [lenalidomide]", "values": [{"measurement": "concentration at which DNA damage sensing was activated", "setting": "[1]", "result": 0.1, "unit": "nM"}, {"measurement": "concentration at which DNA damage sensing was fully activated", "setting": "[1]", "result": 1, "unit": "nM"}, {"measurement": "suicide switch T cell proliferation in competition with untransduced cells", "setting": "[2]", "result": "significantly depleted"}, {"measurement": "effect on abundance of ICAD-degron fusion protein", "setting": "[3]", "result": "specifically destabilized the ICAD-degron fusion protein"}]}]}
